Yeast mating assay B: variants of the scFv Ab-14

Reference: Li et al. 2023, doi:10.1038/s41467-023-39022-2. File: FLAb, binding data.

Antigen: PDVDLGDISGINAS, a 14-residue peptide of the SARS-CoV-2 spike HR2 region.

Parent: Ab-14, a human scFv built as VH, three GGGGS repeats, VL. Only the CDRs of the light chain vary.
VH: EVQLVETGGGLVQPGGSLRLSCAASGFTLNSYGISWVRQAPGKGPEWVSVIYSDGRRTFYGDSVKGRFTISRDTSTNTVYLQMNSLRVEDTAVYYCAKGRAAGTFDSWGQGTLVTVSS
VL: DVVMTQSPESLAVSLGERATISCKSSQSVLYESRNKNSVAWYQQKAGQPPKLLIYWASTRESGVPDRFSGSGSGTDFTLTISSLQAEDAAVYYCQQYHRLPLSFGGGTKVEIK

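Phage display of a naive human antibody library on the peptide gave the parent. The variants were designed computationally from a first round of random CDR variants and then made and measured. Their group label is 14L_GP_HC (GP: Gaussian process model; HC: hill climbing; a sequence that several methods proposed may carry one label only). The scFvs were displayed on barcoded MATa yeast, the peptide on MATalpha yeast. Mating (16 h, 30 °C) was followed by selection of diploids and sequencing of their barcodes. Each replicate has its own calibration line, from reference interactions of the BCL2 family. Mating was done six times.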

Substitutions are numbered in sequence along the VL above, starting at 1 (not Kabat). Affinities are written as log10 Kd with Kd in nM; a lower number is a better binder. Where no diploid with the target was found in that replicate, the entry reads "nd": below detection, most likely a poor binder, though not proof of it. As a blank, each scFv also met three strains without target: over all light chain designs, 4% of these pairings were detected, typically at 2.64 and seldom below 1.59. The control count says in how many pairings with the empty strains this scFv gave a signal, with their mean in brackets. The authors' rule: three or more of the six replicates give a measured affinity, fewer mean a poor binder. The range of this assay differs from that of the first round, and the authors advise against merging the two.

| changes | replicates, log10 nM | empty controls |
|---|---|---|
| S25V S28W N35T W56N T59Q | 0.42 / 0.14 / 0.19 / 0.03 / 0.00 / 0.37 | 0 of 18 |
| S25L S26R Q27M V29T T59Q | 0.13 / 0.78 / 0.08 / 0.30 / 0.64 / 0.39 | 0 of 18 |
| S25L S26R V29T W56M E61L | 0.68 / 1.06 / 0.92 / 1.05 / 1.51 / 1.18 | 0 of 18 |
| S25F N35T W56N A57G Q96W | nd / nd / nd / nd / nd / 1.05 | 0 of 18 |
| S25A V29Y W56G | -0.03 / -0.47 / -0.39 / -0.50 / -0.37 / 0.02 | 0 of 18 |
| S25E V29W W56G T59Q | 0.72 / 0.64 / 0.62 / 0.49 / 0.88 / 0.67 | 1 of 18 (2.85) |
| S25F Y31L N35T W56N | -0.53 / -0.49 / -0.47 / -0.81 / -0.49 / -0.40 | 0 of 18 |
| V29H W56G Q96A P101T | 1.45 / 1.06 / 0.89 / 3.70 / 0.29 / 2.67 | 0 of 18 |
| Q27P L30P W56N S62E Q96D | 0.07 / 0.02 / -0.03 / -0.04 / -0.13 / 0.20 | 0 of 18 |
| S25L S26R V29M W56Y | 0.40 / 0.49 / 0.19 / 0.36 / 0.41 / 0.57 | 1 of 18 (1.83) |
| S25L V29Q W56G P101T | nd / 3.08 / 3.07 / 3.05 / 2.56 / 2.40 | 4 of 18 (2.60) |
| S25L W56E H98Q | -0.36 / -0.36 / -0.19 / -0.38 / -0.35 / 0.02 | 0 of 18 |
| S25F N35T W56N S58Q S62T | -0.46 / -0.69 / -0.61 / -0.61 / -0.45 / -0.44 | 1 of 18 (2.33) |
| S25L Q27W R34N W56H S62D | 0.48 / 0.16 / 0.00 / 0.15 / 0.47 / 0.13 | 0 of 18 |
| S25V V29F K36F W56G | 0.80 / 0.38 / 0.45 / 0.03 / 0.67 / 0.88 | 0 of 18 |
| Q27I V29Y K36Q W56E S62Q | 0.23 / 0.20 / 0.38 / 0.40 / 0.54 / 0.39 | 1 of 18 (2.76) |
| Q27F V29Y W56A | nd / 1.63 / 0.73 / 0.79 / 1.38 / 1.20 | 0 of 18 |
| S25L S26Q L30E W56H S62D | 0.35 / 0.15 / -0.03 / 0.00 / 0.31 / 0.23 | 3 of 18 (2.52) |
| Q27N V29I R34V W56H | 0.13 / 0.03 / 0.04 / -0.34 / 0.10 / -0.07 | 0 of 18 |
| S25L N35M W56D E61C S103E | -0.18 / 0.12 / -0.24 / -0.34 / -0.24 / -0.26 | 2 of 18 (3.05) |
| S25L S26D S28G V29G W56G | -0.21 / -0.29 / -0.15 / -0.37 / -0.14 / -0.10 | 0 of 18 |
| S25V N35M W56N E61C | 0.44 / -0.11 / -0.21 / -0.03 / 0.00 / 0.35 | 0 of 18 |
| S25Q V29N Y31C W56D | 0.66 / 0.50 / 0.34 / 0.46 / 0.57 / 0.49 | 3 of 18 (2.80) |
| Q27I R34M W56N A57G | 0.73 / 0.86 / 0.15 / 0.22 / 0.51 / 0.72 | 1 of 18 (2.16) |
| S25A V29F K36V W56G E61D | 0.18 / -0.01 / 0.21 / -0.07 / 0.04 / 0.18 | 2 of 18 (3.54) |
| S25L S26R Q27G V29T W56N | 0.08 / -0.17 / -0.32 / -0.40 / -0.10 / -0.07 | 1 of 18 (2.08) |
| S25N Y31F E32Q W56D | -0.11 / -0.26 / -0.30 / -0.70 / -0.53 / -0.35 | 1 of 18 (3.30) |
| K24H S25L Q27P W56N S103N | 0.88 / 0.44 / 0.77 / 0.63 / 0.67 / 0.89 | 2 of 18 (1.62) |
| S25Y Y31G S33Q W56D A57I | 0.28 / 0.13 / 0.02 / -0.12 / 0.05 / -0.08 | 3 of 18 (2.26) |
| S26G S28G K36T W56G | 0.34 / 0.24 / 0.33 / 0.13 / 0.14 / 0.67 | 1 of 18 (2.02) |
| Q27K V29G Y31F W56N | 0.16 / -0.15 / -0.05 / -0.26 / -0.11 / -0.09 | 0 of 18 |
| S26G S28G W56G T59Q E61I | -0.07 / 0.03 / -0.38 / -0.51 / -0.09 / -0.03 | 0 of 18 |
| Q27E S28C V29D W56G P101T | 1.88 / 0.96 / 1.33 / 0.74 / 3.07 / 1.61 | 0 of 18 |
| V29W L30G W56E S103M | -0.02 / 0.04 / -0.16 / -0.35 / -0.23 / 0.10 | 2 of 18 (2.72) |
| S26G S28G Y31Q N35V W56G | 0.87 / 0.91 / 0.42 / 0.79 / 0.54 / 0.80 | 2 of 18 (2.72) |
| Q27I V29N W56E | -0.16 / -0.56 / -0.61 / -0.44 / -0.59 / -0.25 | 0 of 18 |
| S25L V29E W56G Q96A | 0.49 / 0.37 / 0.44 / 0.28 / 0.15 / 0.36 | 0 of 18 |

Repeated from above, the 3 best binders with a signal in all replicates:

| changes | replicates, log10 nM | empty controls |
|---|---|---|
| S25F N35T W56N S58Q S62T | -0.46 / -0.69 / -0.61 / -0.61 / -0.45 / -0.44 | 1 of 18 (2.33) |
| S25F Y31L N35T W56N | -0.53 / -0.49 / -0.47 / -0.81 / -0.49 / -0.40 | 0 of 18 |
| Q27I V29N W56E | -0.16 / -0.56 / -0.61 / -0.44 / -0.59 / -0.25 | 0 of 18 |